From paper PMC10386196, “A First-Class Degrader Candidate Targeting Both KRAS G12D and G12V Mediated by CANDDY Technology Independent of Ubiquitination” (Molecules, 2023) come the findings set out here.

Protein sequences, listed by entry. Tags and fused reporters are not part of them. Lines headed by an entry give the natural chain unless they say otherwise; changes in a name come on top.
UniProt P28074: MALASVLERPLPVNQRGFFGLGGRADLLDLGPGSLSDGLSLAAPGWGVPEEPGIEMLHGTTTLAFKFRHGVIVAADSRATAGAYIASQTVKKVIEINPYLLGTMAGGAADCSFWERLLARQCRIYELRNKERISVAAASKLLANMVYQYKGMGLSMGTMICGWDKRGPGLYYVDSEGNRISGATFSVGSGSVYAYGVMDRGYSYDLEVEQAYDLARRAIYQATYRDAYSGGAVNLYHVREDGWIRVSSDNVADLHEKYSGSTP

For this assay, the target named is proteasome β5 (Homo sapiens, UniProt P28074). As to the kind of experiment: Inhibition of proteasome β5 (chymotrypsin-like) activity, Suc-LLVY-AMC substrate. Type of assay: biochemical. The conditions noted are these: SE in parentheses, n = 2. The method, then: Reaction time (min) Reaction time (min)
Figure S1. Proteasome Inhibitors Modified as Degradation Tags, Related to Figures 2
(A) Chymotrypsin-like (β5) , trypsin-like (β2) and caspase-like (β1) activities of the pr oteasome were monitor ed by Suc- LLVY-
AMC (β5 substrate) , Bz- VGR-AMC (β2 substr ate) and Z -LLE-AMC (β1 substrate), respectively. AMC fluorescence was
m onitor ed by a plate reader with excitation and emission filter s of 360 nm and 460 nm, respectively (DMSO, 30 min = 1) […]

Regarding `CC(C)C[C@H](NC(=O)CNC(=O)c1cc(Cl)ccc1Cl)B(O)O` [MLN2238, reference compound], the IC50 is 7.2 nM.
